# Only a part is listed here, and it is no random draw. Some tests of the compounds listed are not included; inactive here does not mean inactive elsewhere. Calls of active or inactive are those of the source.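 The calls were made as follows: active = nuclear translocation activity above 50% at 5 µM, with a well cell count of 50 or more; inconclusive = wells under 50 cells across six images, flagged as toxic; inactive = the rest.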
# Assay: beta-catenin nuclear localization change in HeLa – imaging, HeLa cells, immunofluorescence, high-content, primary screen (AID 1665);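 also: per-cell ratio of nuclear to cytoplasmic median beta-catenin stain intensity; plate controls were DMSO negative control for no effect and GSK-3 inhibitor IX positive control for full effect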
# Conditions: at 5 µM, stronger effect = higher value
# Summary of the method: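 Signal – beta-catenin immunofluorescence imaging with DAPI · Test system – human HeLa cell line · Dosing – 5 µM primary single dose, 0.1% DMSO, 0.02–20 µM confirmation series · Measure – % activation, nuclear-to-cytoplasmic median beta-catenin signal ratio per cell · Incubation – 24 h compound exposure at 37°C, 5% CO2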
row,Structure (SMILES),nuclear translocation activity
1,COc1cccc(C(=O)NCC2(N3CCCCC3)CCCCC2)c1,inactive: -1.3%
2,COc1ccc(Br)c(C(=O)NCC2(N3CCCCC3)CCCCC2)c1,inactive: -0.2%
3,CN(C)c1cccc(C(=O)NCC2(N(C)C)CCCCC2)c1,inactive: -6.3%
4,O=C(NCC1(N2CCCCC2)CCCCC1)c1cc([N+](=O)[O-])ccc1Cl,inactive: 0.9%
5,CCN(CC)CC(C)C(C)OC(=O)C(O)(c1ccccc1)c1ccccc1 (stereo not given),inactive: -0.2%
6,CC(C)N1C(=O)CC2(CCN(CCOC(=O)C(O)(c3ccccc3)c3ccccc3)CC2)C1=O,inactive: -3.2%
7,Cc1ccccc1C(=O)NCC1(N2CCCCC2)CCCCC1,inactive: -3.2%
8,CN(C)C1CCCC1OC(=O)C(O)(c1ccccc1)c1ccccc1 (stereo not given),inactive: 4.3%
9,C=CCN1CCN(CCOC(=O)C(O)(c2ccccc2)c2ccccc2)CC1,inactive: 0.8%
10,CCN1CCCC(OC(=O)C2(O)c3ccccc3C=Cc3ccccc32)C1 (stereo not given),inactive: -0.5%

# From PubChem BioAssay AID1665 (Sanford-Burnham Center for Chemical Genomics, 2009)
